The test system of this assay is T. sanguinis. Description: [3H]5-HT uptake assay in T. sanguinis. The class given is cell-based, Turicibacter sanguinis. To be noted: 30 min pre-treatment.

Each structure is given as a SMILES string.

Take `CNCCC(Oc1ccc(C(F)(F)F)cc1)c1ccccc1` (stereo not shown) [fluoxetine]: the “effect on [3H]5-HT uptake by T. sanguinis” value is “inhibited”.

The record behind these values is patent US12514883B2 (dated 2026).
